Source: article PMC9016349

target: HOIL‐1 (haem‐oxidised IRP2 ubiquitin ligase‐1), full‐length untagged human, wild type (human) (UniProt Q9BYM8)

Rate of HOIL‐1‐catalysed ubiquitylation of maltoheptaose in vitro (30°C, 2 μM ubiquitin oligomer), > 100 fold:
Lys63‐linked ubiquitin tetramer (untagged) (from UniProt P0CG48 1-76)
Lys63‐linked ubiquitin dimer (untagged) (from UniProt P0CG48 1-76)
Met1‐linked ubiquitin dimer (untagged linear diubiquitin) (from UniProt P0CG48 1-76; P0CG48 1-76) (natural protein)
Met1‐linked ubiquitin tetramer (untagged linear tetraubiquitin) (from UniProt P0CG48 1-76; P0CG48 1-76; P0CG48 1-76; P0CG48 1-76) (natural protein)
